Consider one compound from the NIST ThermoML archive (doi:10.1021/je900342a).

The series in a line: Molar enthalpy of transition or fusion. The note with it: Crystal; DSC.

Structures are written as SMILES. Numbers after ± are expanded uncertainties.

Turning to `CC(C)Cc1ccc(C(C)C(=O)O)cc1` (stereo unspecified) [ibuprofen], the “Molar enthalpy of transition or fusion” value worked out at 6.68 ± 0.191 kcal/mol.
